Like-named read-outs stand apart in the source and are kept apart here.
Key:
[1] = type: in vitro ADME, human
Procedure: (§1) After adding 2 mL or 5 mL of a physiological saline solution of pertechnetate (^99mTcO^4−) prepared from a Mo-99/Tc-99m generator (Samyoung Unitech) to the kit of Example, reaction was conducted at room temperature for 1-30 minutes. The radioisotope labeling efficiency of technetium was determined by spotting a small amount of the reactant on an ITLC (instant thin layer chromatography) plate and then measuring the distribution of radioactivity using a TLC scanner after developing with physiological saline. The labeled technetium remained at the origin and all other unlabeled technetium moved to the solvent front. The labeling efficiency was 99% or higher. The stability of the labeled ^99mTc-MSA was investigated by measuring radiochemical purity (%) with time when it was kept at room temperature and when it was mixed with human serum and then incubated at 37° C.

[2] = Stability of labeled 99mTc-MSA by radiochemical purity, kept at room temperature; type: physicochemical; conditions: for radiochemical purity: room temperature
Procedure: as §1

## ^99mTc-MSA: Tc-99m labeled mannosylated human serum albumin prepared with the rMSA kit
[1]
  purity maintained: ≥ 90%
[2]; kept at room temperature, for 20 hours
  purity maintained: ≥ 90%
[2]; 0.5 hr
  radiochemical purity: 94.5%
[2]; 1.0 hr
  radiochemical purity: 96.4%
[2]; 2.0 hr
  radiochemical purity: 91.1%
[2]; 3.0 hr
  radiochemical purity: 94.0%
[2]; 20.0 hr
  radiochemical purity: 91.0%
[2]; 24.0 hr
  radiochemical purity: 95.3%
